Columns and labels:
Experiment in all cases: relative viability (nuclei count vs DMSO), 5 days (fraction); higher = more cells survive
Bortezomib + AZD7762 = compound: CC(C)C[C@H](NC(=O)[C@H](Cc1ccccc1)NC(=O)c1cnccn1)B(O)O [Bortezomib] + NC(=O)Nc1cc(-c2cccc(F)c2)sc1C(=O)N[C@H]1CCCNC1 [AZD7762] (partner 0.2 µM); settings: first compound 0.000632 µM
Procedure, shortened: (§1)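 After 5 days of treatment, lung cancer cells in 1536-well plates were fixed and stained in a single step (final 0.05% Triton X-100, 1% formaldehyde, 1 ug/ml Hoechst) and their nuclei counted on 4× images. Treatment had been applied by pin tool the day after seeding as one drug alone or as a fixed anchor-drug dose with five library-drug doses (not always all listed) in √10 steps. Relative viability is the nuclei count of treated wells divided by that of vehicle wells, and values are medians of duplicate plates.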

Bortezomib + Tozasertib = compound: CC(C)C[C@H](NC(=O)[C@H](Cc1ccccc1)NC(=O)c1cnccn1)B(O)O [Bortezomib] + Cc1cc(Nc2cc(N3CCN(C)CC3)nc(Sc3ccc(NC(=O)C4CC4)cc3)n2)n[nH]1 [Tozasertib] (partner 0.1 µM)
Procedure, shortened: as §1

Bortezomib + Crizotinib = compound: CC(C)C[C@H](NC(=O)[C@H](Cc1ccccc1)NC(=O)c1cnccn1)B(O)O [Bortezomib] + C[C@@H](Oc1cc(-c2cnn(C3CCNCC3)c2)cnc1N)c1c(Cl)ccc(F)c1Cl [Crizotinib] (partner 1 µM); settings: first compound 0.0002 µM
Procedure, shortened: as §1

Bortezomib = compound: CC(C)C[C@H](NC(=O)[C@H](Cc1ccccc1)NC(=O)c1cnccn1)B(O)O [Bortezomib]; settings: 0.0002 µM
Procedure, shortened: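 For viability, nuclei in each treated well were divided by nuclei in vehicle wells and the median across plates was taken. Lung cancer cell lines in 1536-well plates were pinned with five library-drug doses (not always all listed) spaced by √10, cultured 5 days without medium change, and imaged at 4× after Hoechst staining, with plates passing only at control CV below 25% and at least one doubling.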

Bortezomib + Olaparib = compound: CC(C)C[C@H](NC(=O)[C@H](Cc1ccccc1)NC(=O)c1cnccn1)B(O)O [Bortezomib] + O=C(c1cc(Cc2n[nH]c(=O)c3ccccc23)ccc1F)N1CCN(C(=O)C2CC2)CC1 [Olaparib] (partner 8 µM); settings: first compound 0.002 µM
Procedure, shortened: as §1

Bortezomib + Alpelisib = compound: CC(C)C[C@H](NC(=O)[C@H](Cc1ccccc1)NC(=O)c1cnccn1)B(O)O [Bortezomib] + Cc1nc(NC(=O)N2CCC[C@H]2C(N)=O)sc1-c1ccnc(C(C)(C)C(F)(F)F)c1 [Alpelisib] (partner 2 µM); settings: first compound 0.002 µM
Procedure, shortened: as §1

Bortezomib + OSI-027 = compound: CC(C)C[C@H](NC(=O)[C@H](Cc1ccccc1)NC(=O)c1cnccn1)B(O)O [Bortezomib] + COc1cccc2cc(-c3nc([C@H]4CC[C@H](C(=O)O)CC4)n4ncnc(N)c34)[nH]c12 [OSI-027] (partner 0.5 µM); settings: first compound 0.0002 µM
Procedure, shortened: as §1

Bortezomib + Linsitinib = compound: CC(C)C[C@H](NC(=O)[C@H](Cc1ccccc1)NC(=O)c1cnccn1)B(O)O [Bortezomib] + C[C@]1(O)C[C@@H](c2nc(-c3ccc4ccc(-c5ccccc5)nc4c3)c3c(N)nccn32)C1 [Linsitinib] (partner 1 µM); settings: first compound 0.000632 µM
Procedure, shortened: as §1

H3255 gave a relative viability (Bortezomib + AZD7762) of 0.962.

In the case of HCC-44, the relative viability (Bortezomib + Tozasertib; first compound 0.000632 µM) was 0.978.

For HOP-62, the relative viability (Bortezomib + Crizotinib) was 0.978.

For LCLC-103H, the relative viability (Bortezomib + Tozasertib; first compound 0.0002 µM) was 0.542.

LU99A was tested, and the relative viability (Bortezomib) was 0.954.

LXF-289 gave a relative viability (Bortezomib + Olaparib) of 1.01.

Work on NCI-H2085 yielded a relative viability (Bortezomib + Alpelisib) of 0.919.

PC-14 was tested, and the relative viability (Bortezomib + OSI-027) was 0.919.

For RERF-LC-KJ, the relative viability (Bortezomib + Linsitinib) was 0.978.
